These results are taken from patent publication US11219623B2, “Inflammasome inhibition for the treatment of Parkinson's disease, Alzheimer's disease and multiple sclerosis” (University of Kentucky Research Foundation, priority 2015, dated 2022).

Chains of the proteins cited; added tags and fusions are not shown. Lines headed by an entry give the natural chain unless they say otherwise; changes in a name come on top.
UniProt Q99572: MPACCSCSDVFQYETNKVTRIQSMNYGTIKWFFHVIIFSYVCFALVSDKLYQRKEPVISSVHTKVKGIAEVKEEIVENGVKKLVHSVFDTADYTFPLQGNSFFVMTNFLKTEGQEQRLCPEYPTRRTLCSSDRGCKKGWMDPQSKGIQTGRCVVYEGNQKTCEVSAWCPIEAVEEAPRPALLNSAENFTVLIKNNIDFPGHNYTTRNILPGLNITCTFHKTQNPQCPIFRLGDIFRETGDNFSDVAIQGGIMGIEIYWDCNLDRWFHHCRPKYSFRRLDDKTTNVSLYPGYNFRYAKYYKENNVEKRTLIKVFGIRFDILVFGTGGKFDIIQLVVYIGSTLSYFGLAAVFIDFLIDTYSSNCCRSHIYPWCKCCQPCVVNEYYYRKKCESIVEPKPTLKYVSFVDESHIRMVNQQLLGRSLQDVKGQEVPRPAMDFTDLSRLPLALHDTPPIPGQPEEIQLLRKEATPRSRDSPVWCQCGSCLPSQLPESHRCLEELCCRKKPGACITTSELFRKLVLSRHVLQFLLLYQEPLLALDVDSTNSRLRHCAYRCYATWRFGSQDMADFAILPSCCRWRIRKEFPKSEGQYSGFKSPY

In series [1] the test system is mtDNA. To be noted: 50 μM; four days; relative to DMSO.
Series [2] has as its target P2X7 receptor (Homo sapiens, UniProt Q99572). It is filed as cell-based. Particulars: THP-1 macrophages; fluorescence (RFU). More on the design: THP-1 cells differentiated into macrophages by PMA allowed entry of the large fluorescent dye Yo-Pro 1; endogenous in cells; host or cells: PMA-differentiated THP-1 cells. From the text:
To prepare FIG. 17, THP-1 cells differentiated into macrophages by PMA allowed entry of the large fluorescent dye Yo-Pro 1, in an assay for P2X7 receptor activity. […] Indeed, FIG. 17 provides the results of the fluorescence measurement in relative fluorescence units (RFU, y-axis).

The structures appear in SMILES notation.

For the compound `Cc1cn([C@H]2C=C[C@@H](CO)O2)c(=O)[nH]c1=O` [d4T, 2′3′ dideoxythymidine], in series [1], the “relative quantity of mtDNA (mtDNA depletion)” value was “exhibit mtDNA depletion”. In series [2], the “Yo-Pro entry induced by ATP” value is “dose-dependently reduced Yo-Pro entry”.
